Laboratory results taken from patent US10112926B2 (priority 2014, dated 2018).
pIC50: −log10 of the molar value.

The chains behind the UniProt entries cited, without tags or fusion partners. Where a name states a change or a piece, a line headed by the entry shows the natural chain unless it says otherwise.
UniProt P42338: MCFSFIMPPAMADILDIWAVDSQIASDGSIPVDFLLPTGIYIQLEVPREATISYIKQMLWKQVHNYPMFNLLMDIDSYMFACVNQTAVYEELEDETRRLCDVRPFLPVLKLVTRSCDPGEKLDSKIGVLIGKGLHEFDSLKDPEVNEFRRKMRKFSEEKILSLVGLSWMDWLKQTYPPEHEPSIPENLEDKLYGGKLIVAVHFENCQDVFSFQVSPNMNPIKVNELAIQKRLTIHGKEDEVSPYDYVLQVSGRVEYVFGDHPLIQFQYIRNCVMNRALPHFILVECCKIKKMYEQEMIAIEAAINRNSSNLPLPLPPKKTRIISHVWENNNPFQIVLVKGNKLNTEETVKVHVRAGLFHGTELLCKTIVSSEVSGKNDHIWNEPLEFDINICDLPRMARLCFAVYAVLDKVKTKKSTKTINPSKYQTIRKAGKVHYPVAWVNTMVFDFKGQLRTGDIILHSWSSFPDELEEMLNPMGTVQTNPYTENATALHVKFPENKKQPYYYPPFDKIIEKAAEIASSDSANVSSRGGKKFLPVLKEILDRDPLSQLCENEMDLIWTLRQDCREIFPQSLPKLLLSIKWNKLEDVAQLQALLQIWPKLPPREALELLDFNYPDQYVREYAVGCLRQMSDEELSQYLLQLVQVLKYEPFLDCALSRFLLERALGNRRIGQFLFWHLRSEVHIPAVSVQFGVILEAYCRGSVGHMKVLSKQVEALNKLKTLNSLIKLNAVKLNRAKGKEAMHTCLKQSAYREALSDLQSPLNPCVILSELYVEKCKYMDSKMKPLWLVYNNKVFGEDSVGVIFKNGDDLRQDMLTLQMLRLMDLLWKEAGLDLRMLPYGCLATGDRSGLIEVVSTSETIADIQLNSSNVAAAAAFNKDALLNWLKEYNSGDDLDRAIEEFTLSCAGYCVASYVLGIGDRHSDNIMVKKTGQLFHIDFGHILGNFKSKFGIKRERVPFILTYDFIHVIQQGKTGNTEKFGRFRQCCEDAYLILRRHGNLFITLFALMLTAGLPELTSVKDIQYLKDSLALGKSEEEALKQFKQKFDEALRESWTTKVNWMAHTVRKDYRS
UniProt P42336, whole entry, looked up: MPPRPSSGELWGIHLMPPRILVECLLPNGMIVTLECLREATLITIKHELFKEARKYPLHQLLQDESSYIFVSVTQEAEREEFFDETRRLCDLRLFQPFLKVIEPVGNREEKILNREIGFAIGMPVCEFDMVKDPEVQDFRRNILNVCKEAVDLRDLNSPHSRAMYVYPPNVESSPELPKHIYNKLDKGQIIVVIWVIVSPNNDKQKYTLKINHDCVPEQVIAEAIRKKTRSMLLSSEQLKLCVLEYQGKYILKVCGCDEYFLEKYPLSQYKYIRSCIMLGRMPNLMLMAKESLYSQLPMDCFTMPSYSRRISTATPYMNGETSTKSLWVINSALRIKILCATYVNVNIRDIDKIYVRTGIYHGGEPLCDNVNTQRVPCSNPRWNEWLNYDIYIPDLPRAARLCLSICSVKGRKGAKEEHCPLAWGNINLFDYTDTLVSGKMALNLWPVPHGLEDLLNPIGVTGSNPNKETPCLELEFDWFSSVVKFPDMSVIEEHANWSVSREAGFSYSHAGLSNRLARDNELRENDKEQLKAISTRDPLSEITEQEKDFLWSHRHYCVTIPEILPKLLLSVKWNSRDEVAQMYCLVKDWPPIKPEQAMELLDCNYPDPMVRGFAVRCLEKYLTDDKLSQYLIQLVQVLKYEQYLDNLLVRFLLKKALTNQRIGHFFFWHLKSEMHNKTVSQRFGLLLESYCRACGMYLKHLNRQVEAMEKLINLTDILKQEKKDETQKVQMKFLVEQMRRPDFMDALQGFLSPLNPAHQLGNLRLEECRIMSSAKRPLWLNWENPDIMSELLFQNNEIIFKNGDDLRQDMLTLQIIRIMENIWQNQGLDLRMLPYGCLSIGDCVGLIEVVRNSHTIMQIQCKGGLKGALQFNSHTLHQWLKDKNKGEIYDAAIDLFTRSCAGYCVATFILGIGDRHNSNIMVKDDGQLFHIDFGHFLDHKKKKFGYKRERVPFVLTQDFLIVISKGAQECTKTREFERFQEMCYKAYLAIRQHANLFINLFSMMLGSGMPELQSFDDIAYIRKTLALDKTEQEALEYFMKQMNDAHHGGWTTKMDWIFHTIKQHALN

Experiments:
[1] = target: PI 3-kinase beta (Rat-1 pBABEpuro Myr-HA-hp110 beta cells) (Homo sapiens (Human), UniProt P42338); settings: read-out: Assay I PI3Kβ IC50
[2] = target: PI 3-kinase alpha (Rat-1 pBABEpuro Myr-HA-hp110 alpha cells) (Homo sapiens (Human), UniProt P42336); settings: read-out: Assay H PI3Kα IC50

Question: “cis-3-(6-amino-5-(2-methylthiazol-5-yl)pyridin-3-yl)-N-(3-hydroxycyclobutyl)methyl)-4-methylbenzenesulfonamide [Example 83a]” was tested. Which pIC50 [1] did it give?
Answer: 5.12

Question: What about the pIC50 [2] of the same substance?
Answer: 5.29
